# Measurements from patent publication US8378093B2, “Explosives detection markers” (dated 2013).
# Assay: Color change and charge-transfer absorption on complexation of guests with tetra-TTF calix[4]pyrrole 2a
# Details: in either CH2Cl2 or CHCl3
row,Compound,color of solution on mixing guest with 2a
1,O=C1C(F)=C(F)C(=O)C(F)=C1F,brown
2,O=[N+]([O-])c1cccc([N+](=O)[O-])c1,green
3,"2,4,6-trinitrophenole",green
4,"2,4-dinitrophenole",green
